From PubChem
Shown are actives, neighbours in structure and some others; about 0.46% of the full set was active somewhere.
miR-21 reporter: miR-21 reporter, rising signal | HeLa miR-21 FLuc reporter, luciferase, 48 h | Potency, µM (top dose mostly 38.3 µM), inactives show at the top dose reporter change, positive = more light | 340,000 tested, under 10 active | AID 2288; active = well fitted rising curve with a large enough effect; inconclusive = small, poorly fitted or top-dose-only effect; inactive = no such curve, though single readings can be large or run the other way;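 further: % of control where 0% means no effect; miR-21 action dims this reporter so a rising signal means less miR-21 action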
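HeLa cells endogenously expressing miR-21, stably carrying CMV-driven firefly luciferase with a downstream miR-21 binding site, 2000 cells/well. Titrations up to approximately 40 uM, 48 hours; luciferase luminescence read.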
PINK1 expr mod: PINK1 expression modulation; PINK1 immunofluorescence, high-content cytometry, 24 h; Potency, µM (doses to about 76.6 µM), without a hit: at the highest dose activation (PINK1 increase), actives largely listed as activators; 410,000 tested, 0.2% active; active = well fitted activation curve with a large enough effect; inconclusive = small, poorly fitted or top-dose-only effect; cell line not stated here; also: potency is read from the fitted curve at half-maximal effect; % of control where 0% means no effect; nearly all actives have a fitted effect of over 65% in size
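Compound titrations (5 concentrations, 24 h) on a stable cell line; DMSO and CCCP controls. Endpoint: fixed-cell PINK1 immunofluorescence with mitochondrial, cell and nuclear markers, scanned by microplate cytometer.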
PKM2 activator: PKM2 (human) enzyme activation | P14618 | purified PKM2, Kinase-Glo ATP luminescence, activation; response scale: 0% is enzyme alone, no compound | Potency, µM (highest dose often 57.5 µM), without a hit: at the top dose activation, actives largely listed as activators | 260,000 tested, 0.34% active | AID 1631; also: potency is read from the fitted curve at half-maximal effect; % is scaled to controls: 0 for no effect and ±100 for the full control effect; nearly all actives have a fitted effect of over 55% in size
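ATP formation by purified human PK-M2, quantified via coupled luciferase luminescence after 1 h at room temperature with 0.1 mM ADP and 0.5 mM PEP final.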
Chronic BCR inh: inhibitors of chronic active B-cell receptor signaling; AID 493014; ABC-DLBCL IkBa-CBG/CBR reporter, luminescence ratio, 4 h; Potency, µM (series often up to 46.1 µM), inactives show top-dose activity change, negative = inhibition, most hits filed as inhibitors; 340,000 tested, 0.05% active; active = well fitted inhibition curve with a large enough effect in the signal ratio, with a control signal flat, not every such curve was filed as active; inconclusive = small, poorly fitted or top-dose-only effect, or effect the other way, or a change in a side signal; the % refers to the signal ratio;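 also: potency is read from the fitted curve at half-maximal effect; plate controls were basal doxycycline-induced cells for no effect and cells given 10 µM MG132 for full effect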
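Compounds up to 46 uM were incubated four hours with TMD8 cells whose green CBG68 luciferase is fused to IkappaBalpha; red CBR luminescence normalised the signal, and concentration-effect curves were fitted to fusion, red and ratio data.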
B2AR arrestin: beta2AR (human) beta-arrestin recruitment activity; P07550; beta-arrestin recruitment to beta2AR, cell-based reporter; Potency, µM (highest dose often 46.1 µM), for inactives: at the highest dose activation, usual class: activators; 330,000 tested, 0.02% active; AID 492947;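 also: potency is read from the fitted curve at half-maximal effect; 0% = DMSO controls and full agonism = EC100 isoproterenol or metaproterenol; nearly all actives have a fitted effect of over 65% in size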
Pin1 inhibitor: inhibitors of human Pin1; 390,000 tested, 0.009% active; Potency, µM (doses to about 115 µM), inactives show top-dose activity, negative = inhibition, usual class: inhibitors; AID 504891; Q13526; Pin1 FP peptide displacement, HiFluor488, 10 min; active = well fitted inhibition curve with a large enough effect in the polarisation, with a control signal flat, not every such curve was filed as active; inconclusive = small, poorly fitted or top-dose-only effect, or effect the other way, or a change in a side signal; inactive = no such curve, though single readings can be large or run the other way; the % refers to the polarisation; also: potency is read from the fitted curve at half-maximal effect; % is scaled to controls: 0 for no effect and ±100 for the full control effect
* hit, by the source's call; ? = inconclusive; / = no result given; [ ] = remark or other dose. Unless noted, calls follow the shape of the dose curve; as a rule, active = well fitted curve in the direction sought with a large enough effect; inconclusive = small, poorly fitted or top-dose-only effect, or another doubt; inactive = no such curve, though single readings can be large; an effect the other way counts as inactive or inconclusive.

molecule | miR-21 reporter | PINK1 expr mod | PKM2 activator | Chronic BCR inh | B2AR arrestin | Pin1 inhibitor
Fc1ccccc1Cn1nnc2c(NCCc3ccccn3)ncnc21 | -18% | 1% | 13µM* | 8% | 1% | 1%
CN(CC(=O)Nc1ccc(Cl)c(Cl)c1)C1CCCCC1 | 5% | 40µM* | 1% | ? | 0% | -4%
Cc1cnc(SCc2ccccn2)nc1C1CCCN(C(=O)c2ccc3c(c2)OCO3)C1 (configuration not stated) | / | -1% | / | / | / | /
Cc1cc(C)c2[nH]c(=O)c(C(c3nnnn3C(C)(C)C)N3CCN(C(=O)c4ccco4)CC3)cc2c1 (configuration not stated) | -2% | -3%[38.3 µM] | 11µM* | 0% | 0% | 2%
COc1ccccc1C(c1nnnn1C(C)(C)C)N1CCN(C(=O)c2ccco2)CC1 (configuration not stated) | 0% | -3% | 2% | 6% | -1% | -6%
COc1ccc(C2Nc3ccc(Cl)cc3C(=O)N2Cc2ccccc2)cc1COc1ccc(NC(C)=O)cc1 (configuration not stated) | / | / | / | / | / | -1%
O=C1CCCC2=C1C1(CCCOC1)N=C(Nc1nc3ccccc3o1)N2 (configuration not stated) | / | / | / | / | / | 0%
O=C(Nc1ccc(Oc2ccc(NC(=O)Nc3ccc([N+](=O)[O-])cc3)cc2)cc1)Nc1ccc([N+](=O)[O-])cc1 | 4% | 28µM* | 3% | ? | -1% | 4%
CC(C)Oc1ccc(/C=N/NC(N)=S)cc1 | -16% | 2% | 1% | ? | 16µM* | 4%
CC(NC(=S)Nc1ccc(S(=O)(=O)N2CCOCC2)cc1)C1CC2CCC1C2 (configuration not stated) | ? | 40µM* | 4% | ? | -1% | -3%
O=S(=O)(c1ccc(NC(=S)NC23CC4CC(CC(C4)C2)C3)cc1)N1CCCCC1 | / | 18µM* | / | / | / | /
NS(=O)(=O)c1ccc(NC(=S)Nc2ccc(S(=O)(=O)N3CCCC3)cc2)cc1 | 1% | 1% | -6% | 1% | 0% | 1%
Cc1ccc(C)c(S(=O)(=O)NCc2nc(N3CCCC3)c3cc(Cl)ccc3n2)c1 | / | 1% | / | / | / | /
Cc1nc2c(-c3ccc(Cl)cc3)c(C)[nH]n2c(=O)c1Cc1ccccc1 | ? | 35µM* | 1% | ? | 0% | 13%
O=C(NCCN1C(=O)S/C(=C\c2cccs2)C1=O)c1ccc(=O)[nH]c1 | -38% | / | 4.5µM* | 0% | 0% | /
CC1Cc2ccccc2N1C(=O)CSC1=NCCS1 (configuration not stated) | -16% | 11µM* | -2% | ? | 0% | -5%
CC1=[N+](C)c2c(ccc3cccnc23)C1(C)C | ? | 13µM* | 5% | ? | 0% | ?
Cc1[nH]c2c(ccc3cccnc32)c1C | -19% | 0% | 0% | -1% | 0% | -7%
Cc1nn(-c2ccccc2)c2ncc(C(=O)c3cc(Cl)ccc3O)cc12 | -10% | 28µM* | 1% | 15% | 0% | 0%
O=C(COc1ccccc1/C=C1\SC(=S)NC1=O)Nc1ccc(F)cc1 | / | 32µM* | / | -14% | 0% | -11%
NC1=NC(=O)/C(=C/c2ccccc2OCC(=O)Nc2ccc(F)cc2)S1 | / | 12% | / | 5% | -2% | 55%
O=C(NCc1ccccn1)c1cnn(-c2nccc(-c3cccs3)n2)c1C1CC1 | / | 0% | / | / | / | /
O=[S+]([O-])(c1ccc2c(c1)OCCO2)N1CCN([S+](=O)([O-])c2c(O)cc(F)cc2F)CC1 | / | / | / | / | / | 2%
CC(=O)Nc1ccc(S(=O)(=O)N2CCCc3ccccc32)cc1 | 18% | 3.2µM* | -2% | 0% | 0% | -3%
N=C1/C(=C\c2coc3ccc(O)cc3c2=O)C(=O)N=C2SC=CN12 | 12% | 2% | 28µM* | ? | 1% | ?
